Experimental data taken from ChEMBL document CHEMBL3992538, “Hybrids of thienopyrimidinones and thiouracils as anti-tubercular agents: SAR and docking studies” (Eur J Med Chem, 2017).

Tests used:
Assay type in all cases: toxicity, cell-based
[1] = Selectivity index, ratio of GI50 for human PANC1 cells to MIC for dormant stage of Mycobacterium tuberculosis H37Ra ATCC 25177 infected in human THP1 cells; conditions: PANC-1 cells, read-out: Selectivity Index
Procedure, shortened: (§1)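 Selectivity index is the cytotoxic GI50 against the named human cell line divided by the antimycobacterial value. Activity counted as specific when SI >10.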

[2] = Selectivity index, ratio of GI50 for human HeLa cells to MIC for dormant stage of Mycobacterium tuberculosis H37Ra ATCC 25177 infected in human THP1 cells; conditions: read-out: Selectivity Index; procedure, shortened: as §1
[3] = Selectivity index, ratio of GI50 for human A549 cells to MIC for dormant stage of Mycobacterium tuberculosis H37Ra ATCC 25177 infected in human THP1 cells; conditions: read-out: Selectivity Index; procedure, shortened: as §1

Measured: selectivity ratio

CO[C@H]1/C=C/O[C@@]2(C)Oc3c(C)c(O)c4c(O)c(c(/C=N/N5CCN(C)CC5)c(O)c4c3C2=O)NC(=O)/C(C)=C\C=C\[C@H](C)[C@H](O)[C@@H](C)[C@@H](O)[C@@H](C)[C@H](OC(C)=O)[C@@H]1C [RIFAMPIN]
133: all assays above
